pEC50: −log10 of the molar value.
Experiments:
[1] = target: T1, Metabotropic glutamate receptor 1 (Rattus norvegicus, UniProt P23385); experiment: Concentration for half maximal activation of metabotropic glutamate mGluR1c in rat
[2] = target: T1, Metabotropic glutamate receptor 1; experiment: Concentration for half maximal activation of metabotropic glutamate mGluR1b in rat
[3] = target: Metabotropic glutamate receptor 4 (Homo sapiens, UniProt Q14833); experiment: Concentration for half maximal activation of metabotropic glutamate mGluR4a in human
[4] = target: Metabotropic glutamate receptor 2 (Rattus norvegicus, UniProt P31421); experiment: Concentration for half maximal activation of metabotropic glutamate mGluR2 in rat

The chains behind the UniProt entries cited, without tags or fusion partners. Where a name states a change or a piece, a line headed by the entry shows the natural chain unless it says otherwise.
UniProt P23385: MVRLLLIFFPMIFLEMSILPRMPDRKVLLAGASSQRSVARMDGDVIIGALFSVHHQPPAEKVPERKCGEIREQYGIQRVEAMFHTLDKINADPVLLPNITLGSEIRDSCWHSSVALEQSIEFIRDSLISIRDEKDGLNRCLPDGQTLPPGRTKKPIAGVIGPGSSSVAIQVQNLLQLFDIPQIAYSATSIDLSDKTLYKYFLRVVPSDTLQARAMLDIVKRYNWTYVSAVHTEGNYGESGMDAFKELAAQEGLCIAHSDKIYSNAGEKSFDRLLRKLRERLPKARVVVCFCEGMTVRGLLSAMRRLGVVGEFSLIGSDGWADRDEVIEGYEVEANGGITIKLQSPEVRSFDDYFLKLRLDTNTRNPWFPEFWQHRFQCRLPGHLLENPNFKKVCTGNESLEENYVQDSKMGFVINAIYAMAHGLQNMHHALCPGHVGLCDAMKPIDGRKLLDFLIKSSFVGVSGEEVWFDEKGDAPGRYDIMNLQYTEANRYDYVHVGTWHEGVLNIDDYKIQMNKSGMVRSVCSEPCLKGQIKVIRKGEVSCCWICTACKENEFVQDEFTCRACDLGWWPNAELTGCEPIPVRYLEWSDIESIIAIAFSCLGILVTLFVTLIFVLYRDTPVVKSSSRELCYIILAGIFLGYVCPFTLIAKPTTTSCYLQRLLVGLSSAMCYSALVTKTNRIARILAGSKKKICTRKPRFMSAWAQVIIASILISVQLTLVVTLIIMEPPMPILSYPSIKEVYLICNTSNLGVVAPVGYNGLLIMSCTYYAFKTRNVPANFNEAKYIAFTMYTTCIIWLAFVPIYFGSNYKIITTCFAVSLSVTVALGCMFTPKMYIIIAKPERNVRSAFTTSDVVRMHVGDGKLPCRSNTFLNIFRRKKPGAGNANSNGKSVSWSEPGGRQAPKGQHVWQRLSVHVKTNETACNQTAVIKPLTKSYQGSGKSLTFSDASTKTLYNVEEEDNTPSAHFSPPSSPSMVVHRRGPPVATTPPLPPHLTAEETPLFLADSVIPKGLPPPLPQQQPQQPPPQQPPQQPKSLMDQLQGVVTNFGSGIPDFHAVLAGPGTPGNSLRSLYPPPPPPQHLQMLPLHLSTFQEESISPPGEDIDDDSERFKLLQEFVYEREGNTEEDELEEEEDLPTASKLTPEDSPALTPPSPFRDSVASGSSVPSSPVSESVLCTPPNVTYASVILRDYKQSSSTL
UniProt Q14833: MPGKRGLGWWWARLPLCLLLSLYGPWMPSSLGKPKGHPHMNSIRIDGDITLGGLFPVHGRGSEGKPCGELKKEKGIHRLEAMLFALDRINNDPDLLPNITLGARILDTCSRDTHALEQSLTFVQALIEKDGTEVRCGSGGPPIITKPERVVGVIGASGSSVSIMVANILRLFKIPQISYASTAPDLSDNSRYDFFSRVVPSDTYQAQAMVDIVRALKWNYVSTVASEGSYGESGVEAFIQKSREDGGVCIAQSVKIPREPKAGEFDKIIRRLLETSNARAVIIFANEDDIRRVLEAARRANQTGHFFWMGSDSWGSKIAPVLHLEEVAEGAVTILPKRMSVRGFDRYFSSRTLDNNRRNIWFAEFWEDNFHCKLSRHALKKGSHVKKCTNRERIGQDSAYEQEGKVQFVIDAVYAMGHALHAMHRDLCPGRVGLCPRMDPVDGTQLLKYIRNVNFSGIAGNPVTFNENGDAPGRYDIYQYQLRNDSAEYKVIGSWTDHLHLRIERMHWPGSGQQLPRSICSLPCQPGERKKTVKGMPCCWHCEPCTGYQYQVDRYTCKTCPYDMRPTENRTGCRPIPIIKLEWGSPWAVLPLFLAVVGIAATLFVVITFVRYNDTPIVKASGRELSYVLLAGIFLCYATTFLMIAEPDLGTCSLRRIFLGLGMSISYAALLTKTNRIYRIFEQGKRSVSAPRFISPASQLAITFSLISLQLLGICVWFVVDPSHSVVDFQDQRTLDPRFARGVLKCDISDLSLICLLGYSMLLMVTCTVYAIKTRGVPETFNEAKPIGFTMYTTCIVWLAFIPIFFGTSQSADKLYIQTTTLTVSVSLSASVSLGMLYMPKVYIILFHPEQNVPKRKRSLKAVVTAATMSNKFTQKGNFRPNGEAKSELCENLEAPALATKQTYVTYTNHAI
UniProt P31421: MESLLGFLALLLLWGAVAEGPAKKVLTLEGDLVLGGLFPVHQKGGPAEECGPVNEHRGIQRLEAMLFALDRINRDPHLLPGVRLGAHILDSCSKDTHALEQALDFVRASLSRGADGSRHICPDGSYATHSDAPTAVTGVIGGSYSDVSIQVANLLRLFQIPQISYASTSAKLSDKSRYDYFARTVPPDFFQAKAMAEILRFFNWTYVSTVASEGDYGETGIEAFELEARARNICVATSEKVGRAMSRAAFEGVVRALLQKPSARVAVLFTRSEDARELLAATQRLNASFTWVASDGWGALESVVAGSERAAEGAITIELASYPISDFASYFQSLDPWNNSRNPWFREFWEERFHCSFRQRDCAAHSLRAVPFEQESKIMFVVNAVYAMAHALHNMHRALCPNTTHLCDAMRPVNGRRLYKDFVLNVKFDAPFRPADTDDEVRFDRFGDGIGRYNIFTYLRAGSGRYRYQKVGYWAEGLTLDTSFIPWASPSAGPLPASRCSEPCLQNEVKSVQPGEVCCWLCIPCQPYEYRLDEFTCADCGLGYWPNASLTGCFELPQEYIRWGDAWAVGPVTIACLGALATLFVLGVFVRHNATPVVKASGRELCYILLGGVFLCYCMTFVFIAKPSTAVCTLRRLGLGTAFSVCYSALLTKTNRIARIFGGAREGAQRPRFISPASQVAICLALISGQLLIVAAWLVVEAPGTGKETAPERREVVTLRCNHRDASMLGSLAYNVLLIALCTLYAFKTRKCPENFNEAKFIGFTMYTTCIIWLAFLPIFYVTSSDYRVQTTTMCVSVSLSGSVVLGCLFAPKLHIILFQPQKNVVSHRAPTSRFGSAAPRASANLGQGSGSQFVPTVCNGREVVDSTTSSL

Row | Structure (SMILES) | pEC50 [1] | pEC50 [2] | pEC50 [3] | pEC50 [4]
1 | N[C@@]1(C(=O)O)CC[C@@H](C(=O)O)C1 | 3.89 | 3.98 | 3.78 | –
2 | N[C@H](C(=O)O)c1cc(=O)[nH]o1 [IBOTENIC ACID] | – | – | – | 4.46

Source: ChEMBL document CHEMBL1128305, “Metabotropic glutamate receptors: novel targets for drug development” (J Med Chem, 1995)
